In patent US12685777B2, “Compositions, systems, and methods for modulating a target gene” (The Board of Trustees of the Leland Stanford Junior …, priority 2022, dated 2026):

Legend:
BRD4^BD1 and BCL6^BTB [1] = target: T1, BRD4^BD1 and BCL6^BTB (Homo sapiens, UniProt O60885+P41182, C67R/C84N/C8Q); assay: Isothermal calorimetry (ITC), ternary complex titration; type: binding; conditions: mean±s.d. of 3 replicates, read-out: KD BRD4:TCIP1:BCL6 (ternary complex affinity)
T1 construct: contains amino acids 5-129 with three mutations, C8Q, C67R, C84N; 6xHis-TEV (N, cleaved yes)
Description: Tag-cleaved version of BCL6^BTB and BRD4^BD1 were used for experiments, in a VP-ITC machine. For binary assays with TCIP1, 400 μM BCL6^BTB or BRD4^BD1 were titrated from the syringe into a cell containing 40 μM TCIP1. For the binary protein-protein ITC, 330 μM BCL6^BTB was titrated into 68 μM BRD4^BD1. For binary assays with JQ1 or Bl3812, 100 μM BCL6^BTB or 350 μM BRD4^BD1 was titrated from the syringe into a cell containing 5 μM Bl3812 or 20 μM JQ1. For the ternary complex assays, 200 μM BRD4^BD1 was incubated with 10 μM TCIP1 in the cell (20-fold excess, to drive saturation of the binary complex), and 100 μM BCL6^BTB was titrated from the syringe, at 310 rpm stirring at 25° C. in a buffer containing 10 mM HEPES pH 7.5, 200 mM NaCl, 5% glycerol, 1 mM TCEP, and matched DMSO % (never more than 0.4%) in the syringe and the cell. The first one or two injections and outliers from instrument noise were routinely excluded. Data was fit to a one-site model using MicroCal LLC Origin software.
(§1) One reason for a broadening of the hook effect is the formation of cooperative protein-protein interactions induced by the drug, such as a molecular glue. Hypothesizing that TCIP1 may induce a molecular glue interaction important for potency, isothermal calorimetry (ITC) binary and ternary titrations of TCIP1, BRD4^BD1, and BCL6^BTB were carried out.

BRD4^BD1 and BCL6^BTB [2] = target: T1, BRD4^BD1 and BCL6^BTB; assay: Biolayer interferometry (BLI) of the ternary complex; type: binding; conditions: read-out: KD BRD4:TCIP1:BCL6 (ternary complex affinity)
Description: The tag-cleaved version of BRD4^BD1 and biotinylated BCL6^BTB were used for experiments, in a Gator Bio BLI machine. 50 μM of BRD4^BD1 was added to each well containing titrations of TCIP1 from 5.5 nM to 12 μM so that BRD4^BD1 would be in excess and drive binary BRD4^BD1:TCIP1 complex formation. 100 nM BCL6^BTB was loaded on the tip. Experiments were carried out at 25° C. After loading, association was carried out for 300s, dissociation for 300s, and a baseline for 30s. A TCIP1-only control was carried out for each concentration confirming that there was no binding between BCL6^BTB and TCIP1 on its own. […] Data was analyzed in GraphPad Prism with the association curves fit to the model “One-phase association” and the dissociation curves to the model “One-phase decay” to obtain kinetic parameters. The KD was obtained by fitting a “One-site binding” curve to the Span of each association curve vs. concentration of drug.
as §1

CNC(=O)COc1cc2cc(Nc3nc(N4CCC(C(=O)NCCCCCCCNC(=O)C[C@@H]5N=C(c6ccc(Cl)cc6)c6c(sc(C)c6C)-n6c(C)nnc65)CC4)ncc3Cl)cc(OC)c2n(C)c1=O [TCIP1]
Kd (BRD4^BD1 and BCL6^BTB [1]): 340 nM
Kd (BRD4^BD1 and BCL6^BTB [2]): 316 ± 182 nM
